Values of other authors in US20080275009A1, “ORAL ADMINISTRATION OF N-(2-CHLORO-6-METHYLPHENYL)-2-[[6-[4-(2-HYDROXYETHYL)-1-PIPERAZINYL]-2-METHYL-4-PYRIMIDINYL]AMINO]-1,3-THIAZOLE-5-CARBOXAMIDE AND SALTS THEREOF” (Bristol-Myers Squibb Company, priority 2005, published 2008).

Protein sequences, listed by entry. Tags and fused reporters are not part of them. Residues count along the entry.
UniProt P10721, 26-976: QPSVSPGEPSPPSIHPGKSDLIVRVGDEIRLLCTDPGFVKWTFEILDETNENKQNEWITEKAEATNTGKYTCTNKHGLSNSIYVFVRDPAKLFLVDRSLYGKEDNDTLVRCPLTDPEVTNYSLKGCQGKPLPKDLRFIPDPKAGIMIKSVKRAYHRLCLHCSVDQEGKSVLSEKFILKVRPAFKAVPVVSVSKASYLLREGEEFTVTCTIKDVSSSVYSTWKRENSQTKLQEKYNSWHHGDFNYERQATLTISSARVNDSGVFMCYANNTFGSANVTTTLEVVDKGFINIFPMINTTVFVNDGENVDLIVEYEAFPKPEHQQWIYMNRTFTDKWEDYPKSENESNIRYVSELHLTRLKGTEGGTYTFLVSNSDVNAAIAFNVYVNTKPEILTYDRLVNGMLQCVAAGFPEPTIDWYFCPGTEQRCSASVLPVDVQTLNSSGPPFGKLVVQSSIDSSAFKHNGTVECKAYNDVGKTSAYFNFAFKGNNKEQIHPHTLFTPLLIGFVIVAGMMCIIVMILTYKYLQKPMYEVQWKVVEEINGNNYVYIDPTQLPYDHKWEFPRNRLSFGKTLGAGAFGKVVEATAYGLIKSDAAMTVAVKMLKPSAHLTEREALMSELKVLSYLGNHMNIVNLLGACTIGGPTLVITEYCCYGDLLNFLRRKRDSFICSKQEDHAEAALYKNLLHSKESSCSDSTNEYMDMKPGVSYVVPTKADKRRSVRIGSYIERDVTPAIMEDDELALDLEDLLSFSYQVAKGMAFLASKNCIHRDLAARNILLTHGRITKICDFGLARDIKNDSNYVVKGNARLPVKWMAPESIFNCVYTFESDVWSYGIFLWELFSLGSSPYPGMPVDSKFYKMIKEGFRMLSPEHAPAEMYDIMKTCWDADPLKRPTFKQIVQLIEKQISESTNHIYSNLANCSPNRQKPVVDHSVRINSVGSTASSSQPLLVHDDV

Target: c-KIT (Homo sapiens, UniProt P10721)
Settings: general statement, method or value not given; cited from earlier work

For `Cc1nc(Nc2ncc(C(=O)Nc3c(C)cccc3Cl)s2)cc(N2CCN(CCO)CC2)n1` [Compound I, N-(2-chloro-6-methylphenyl)-2-((6-(4-(2-hydroxyethyl)-1-piperazinyl)-2-methyl-4-pyrimidinyl)amino)-1,3-thiazole-5-carboxamide], the “inhibition of c-KIT” value is listed as “potent inhibitor”.
